In patent US10968215B2 (SHANGHAI HAIHE PHARMACEUTICAL CO., LTD., priority 2016, dated 2021) one finds IC50 data, which are given here for three molecules.

Protein sequences, listed by entry. Tags and fused reporters are not part of them.
UniProt Q15910, whole entry: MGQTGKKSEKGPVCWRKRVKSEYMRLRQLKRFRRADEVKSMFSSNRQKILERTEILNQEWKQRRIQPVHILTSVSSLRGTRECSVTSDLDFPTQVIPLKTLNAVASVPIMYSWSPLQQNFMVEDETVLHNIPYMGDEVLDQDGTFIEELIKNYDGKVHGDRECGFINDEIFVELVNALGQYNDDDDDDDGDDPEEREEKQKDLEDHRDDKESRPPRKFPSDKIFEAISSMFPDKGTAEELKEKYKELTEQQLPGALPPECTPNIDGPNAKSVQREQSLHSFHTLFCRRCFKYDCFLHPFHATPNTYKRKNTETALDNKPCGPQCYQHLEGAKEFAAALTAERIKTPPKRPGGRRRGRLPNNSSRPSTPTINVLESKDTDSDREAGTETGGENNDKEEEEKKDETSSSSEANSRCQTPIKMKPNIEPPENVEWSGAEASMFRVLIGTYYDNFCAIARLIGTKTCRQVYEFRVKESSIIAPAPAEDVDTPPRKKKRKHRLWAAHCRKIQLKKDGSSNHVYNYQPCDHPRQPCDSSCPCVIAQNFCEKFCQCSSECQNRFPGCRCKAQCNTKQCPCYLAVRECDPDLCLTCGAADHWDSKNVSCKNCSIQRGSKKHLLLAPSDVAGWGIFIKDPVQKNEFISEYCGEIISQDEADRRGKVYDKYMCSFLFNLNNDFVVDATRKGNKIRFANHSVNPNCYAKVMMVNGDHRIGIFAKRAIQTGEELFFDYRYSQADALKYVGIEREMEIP
UniProt Q15910, whole entry Y641F: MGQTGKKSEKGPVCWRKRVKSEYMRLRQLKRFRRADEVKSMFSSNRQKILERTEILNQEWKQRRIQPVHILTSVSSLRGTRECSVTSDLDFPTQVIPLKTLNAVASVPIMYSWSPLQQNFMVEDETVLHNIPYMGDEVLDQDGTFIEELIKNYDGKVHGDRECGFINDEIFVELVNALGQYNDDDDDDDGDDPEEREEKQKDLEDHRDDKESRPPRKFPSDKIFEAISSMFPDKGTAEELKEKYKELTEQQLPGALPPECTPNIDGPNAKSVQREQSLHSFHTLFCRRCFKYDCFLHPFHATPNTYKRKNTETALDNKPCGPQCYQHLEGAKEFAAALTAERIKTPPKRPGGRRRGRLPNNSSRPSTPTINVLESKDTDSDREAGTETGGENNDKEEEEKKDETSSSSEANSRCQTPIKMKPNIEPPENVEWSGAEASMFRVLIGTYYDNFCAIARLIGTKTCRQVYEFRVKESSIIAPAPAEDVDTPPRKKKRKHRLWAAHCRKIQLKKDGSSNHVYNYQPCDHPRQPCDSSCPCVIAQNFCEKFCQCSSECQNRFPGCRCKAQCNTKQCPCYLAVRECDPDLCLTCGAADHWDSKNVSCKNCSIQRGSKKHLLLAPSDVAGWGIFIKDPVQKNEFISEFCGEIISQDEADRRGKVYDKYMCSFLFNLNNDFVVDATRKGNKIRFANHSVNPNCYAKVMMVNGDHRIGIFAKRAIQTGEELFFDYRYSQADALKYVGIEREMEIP

The target of test [1] is PRC2 complex (EZH2/EED/SUZ12/RbAp48/AEBP2) (Homo sapiens (Human), UniProt Q15910). The experiment in a line: Activity of a compound to PRC2 complex (EZH2 wild type), ELISA. In kind it is biochemical. From the text:
2. Determination of the Activity of a Compound to PRC2 Complex (EZH2 Wild Type):
Detection Method: Enzyme-Linked Immunosorbent Assay (ELISA)
MATERIALS: The PRC2 complex (EZH2/EED/SUZ12/RbAp48/AEBP2) histone methyltransferase was purchased from BPS; the substrate Biotin H3 (21-44) me0 was produced by AnaSpec; SAM was purchased from Sigma, which is GL Biochem product; methyl donor SAM was purchased from Sigma-aldrich; H3K27me3 antibody was purchased from BPS.
Experimental method: avdin of a final concentration of 100 nM was used to coat 96-well plate at 10 μL/well, placed in a wet box and shaken overnight, and then 100 μL 3% BSA per well was added and blocked for 1 h at room temperature. PRC2 complex (EZH2/EED/SUZ12/RbAp48/AEBP2), H3 (21-44) me0 substrate, methyl donor SAM and compound were added into each well of the blocked 96-well plate. The total reaction system was 100 μL, placed in a wet box and allowed to react for 1 h on shaker at room temperature. The plate was washed with TBS-T [20 mM Tris-HCl (pH 7.2-7.4, room temperature), 150 mM NaCl, 0.1% (v/v) Tween-20] for 3 times, blocked with 3% BSA for 10 min, and anti-H3K27me3 antibody was added and incubated for 1 h in a wet box on shaker at room temperature. […] The plate was read by a plate reader at 490 nm and IC50 of the compound was calculated using SoftMax Pro 5.4.1 software.
Background: ELISA stands for enzyme-linked immunosorbent assay.

For test [2], the target named is PRC2 complex (EZH2 Y641F/EED/SUZ12/RbAp48/AEBP2) (Homo sapiens (Human), UniProt Q15910, Y641F). The test can be described thus: Activity of a compound to PRC2 complex (EZH2 Y641F), HTRF. For orientation: TR-FRET usually uses a lanthanide donor and a delayed reading to cut background.
The mark [3] stands for this setting: read-out: IC50 (EZH2_Y641F), class symbols.

SMILES strings stand for the structures. Read-outs that look alike come from different tables or passages of the source.

In the case of `COc1cc(C)[nH]c(=O)c1CNC(=O)c1cc2c(-c3ccn[nH]3)ccn2c([C@H](C)N2CCN(CC(F)(F)F)CC2)c1C` (single isomer, unassigned) [Compound 156, (S)—N-((4-methoxy-6-methyl-2-oxo-1,2-dihydropyridin-3-yl)methyl)-6-methyl-1-(1H-pyrazol-5-yl)-5-(1-(4-(2,2,2-trifluoroethyl)piperazin-1-yl)ethyl)indolizine-7-carboxamide or (R)—N-((4-methoxy-6-methyl-2-oxo-1,2-dihydropyridin-3-yl)methyl)-6-methyl-1-(1H-pyrazol-5-yl)-5-(1-(4-(2,2,2-trifluoroethyl)piperazin-1-yl)ethyl)indolizine-7-carboxamide], the IC50 (in general, the midpoint of a concentration-inhibition curve) in test [1] (numeric values) stood at 3.81 nM; in test [2] (read-out: IC50 (EZH2_Y641F), numeric values), 3.1 nM. Turning to `COc1cc(C)[nH]c(=O)c1CNC(=O)c1cc2c(-c3ccn[nH]3)ccn2c(C(C)N2CCN(CC(F)(F)F)CC2)c1C` (centres unmarked) [Compound 154, N-((4-methoxy-6-methyl-2-oxo-1,2-dihydropyridin-3-yl)methyl)-6-methyl-1-(1H-pyrazol-5-yl)-5-(1-(4-(2,2,2-trifluoroethyl)piperazin-1-yl)ethyl)indolizine-7-carboxamide], the IC50 in test [2] (setting [3]) was less than 100 nM. Regarding `Cc1cc(C)c(CNC(=O)c2cc3cccn3c(C(C)N3CCOCC3)c2C)c(=O)[nH]1` (centres unmarked) [Example 26, N-((4,6-dimethyl-2-oxo-1,2-dihydropyridin-3-yl)methyl)-6-methyl-5-(1-morpholinylethyl)indolizine-7-carboxamide], the concentration for half-maximal inhibition (IC50) in test [1] (class symbols) and in test [2] (setting [3]) was less than 100 nM throughout.
